Ki and IC50 data for two compounds are collected here from US6586405B2, “Non-covalent inhibitors of urokinase and blood vessel formation” (Corvas International, Inc., priority 2000, dated 2003).

Chains of the proteins cited; added tags and fusions are not shown. Residues count along the entry.
UniProt P00750, 36-562 limits assumed: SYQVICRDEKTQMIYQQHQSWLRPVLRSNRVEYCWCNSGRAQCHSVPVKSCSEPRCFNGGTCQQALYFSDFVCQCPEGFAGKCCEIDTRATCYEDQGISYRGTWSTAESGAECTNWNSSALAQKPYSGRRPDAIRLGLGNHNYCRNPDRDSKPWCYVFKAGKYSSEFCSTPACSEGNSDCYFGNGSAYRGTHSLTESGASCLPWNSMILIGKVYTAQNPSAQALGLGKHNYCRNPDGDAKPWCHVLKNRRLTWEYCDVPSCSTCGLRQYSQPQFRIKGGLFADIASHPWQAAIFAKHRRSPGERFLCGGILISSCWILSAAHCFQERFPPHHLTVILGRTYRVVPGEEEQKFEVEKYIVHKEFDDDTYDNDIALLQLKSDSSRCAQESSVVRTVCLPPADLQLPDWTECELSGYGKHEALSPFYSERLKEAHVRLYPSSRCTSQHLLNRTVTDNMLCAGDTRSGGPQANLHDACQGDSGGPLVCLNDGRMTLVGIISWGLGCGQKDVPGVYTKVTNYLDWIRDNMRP

The target of one assay is Urokinase (Abbokinase) (Homo sapiens, UniProt P00749). Nature of the assay: Urokinase assay, chromogenic substrate S-2444. Particulars: read-out: Ki uPA; Ki calculated using the IC50 value; 30 minute incubation, HBSA buffer. The format is biochemical.
Another assay has as its target Human rt-PA (Activase) (Homo sapiens, UniProt P00750). Nature of the assay: Recombinant tissue plasminogen activator (rt-PA) assay, chromogenic substrate Pefachrome t-PA. Particulars: read-out: IC50 tPA; 30 minute incubation, HBSA buffer, rt-PA 1.0 nM.

Molecules are shown by their SMILES.

As usually defined, the Ki is a dissociation constant, usually derived from enzyme kinetics or from competition with a known ligand. What is called IC50 is the midpoint of a concentration-inhibition curve. Turning to `N=C(N)c1ccc(CNC(=O)[C@@H]2CCCN2C(=O)[C@@H](CO)NS(=O)(=O)CCc2ccccc2)cc1`, the Ki at Urokinase (Abbokinase) is < 0.1 µM. Moreover, at Human rt-PA (Activase), the IC50 is > 2.5 µM.

As to `CCCCS(=O)(=O)N[C@H](CO)C(=O)N1CCC1C(=O)NCc1ccc(C(=N)N)cc1` (single isomer, unassigned), at Urokinase (Abbokinase), the Ki was < 0.1 µM.
